Compound activity as filed in PubChem BioAssay.
Nrf2 ARE act = Nrf2 pathway activation. AID 624171. AREc32 ARE-luciferase reporter (MCF7-derived line), luminescence, 24 h. Potency, µM (top dose mostly 46.1 µM), usual class: activators. 0.31% of 410,000 active; also: nearly all actives have a fitted effect of over 65% in size
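AREc32 cells carrying an ARE-driven firefly luciferase, 1000 cells/well in OPTI-MEM with 5% FBS, dosed after overnight attachment and incubated 24 hr at 37 deg C. Steady-Glo luminescence read after 30 min at RT.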
A549 tox-1 = A549 cytotoxicity, counter-screen for Nrf2 inhibitors; A549 ARE-Fluc cells, CellTiter-Fluor viability, 18-24 h; Potency, µM (top dose mostly 46 µM), actives largely listed as inhibitors; 0.16% of 390,000 active
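A549 ARE-Fluc cells in 5% FBS OPTI-MEM, 5000 cells/well, rested 2 h then exposed to compounds in concentration-response for 18-24 h at 37 °C. Viability by CellTiter-Fluor fluorescence (Ex 405/Em 525) after 30 min; luciferase luminescence (BugLite, 15 min, RT) read afterwards.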
ClpP mod = qHTS Assay for Activators of ClpP | ATP-dependent Clp protease proteolytic subunit (Bacillus subtilis (strain 168)), P80244 | purified B. subtilis ClpP, FRET peptide cleavage, 20 min | Potency, µM (highest dose often 57.5 µM) | 1.9% of 340,000 active | AID 651965, 2013; active = well fitted falling curve with a large enough effect; inconclusive = small, poorly fitted or top-dose-only effect; inactive = no such curve, though single readings can be large or run the other way; also: the source files actives as falling curves though it sought activators and does not explain the sign; nearly all actives have a fitted effect of over 65% in size
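FRET quenching reversal measured ClpP activation: 10 microg/mL B. subtilis ClpP at pH 8 with the FRET-FV decapeptide, read at 430 nm after 320 nm excitation. The 20-min minus 0-min signal was scaled between DMSO/no-enzyme wells and ADEP (5.8 microM final).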
miR-21 reporter = raises the signal of a miR-21 reporter; AID 2288; 340,000 tested, under 10 active; Potency, µM (doses to about 38.3 µM); HeLa miR-21 FLuc reporter, luciferase, 48 h; active = well fitted rising curve with a large enough effect; inconclusive = small, poorly fitted or top-dose-only effect; inactive = no such curve, though single readings can be large or run the other way;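 note: miR-21 action dims this reporter so a rising signal means less miR-21 action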
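HeLa cells stably expressing CMV-driven firefly luciferase with a downstream miR-21 binding sequence, endogenously expressing miR-21, were treated with titrations (up to about 40uM final) for 48 hours at 37 degree Celsius. Luciferase luminescence was read after lysis.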
IL2 activator = activates IL-2 in a cell-based reporter assay. IL-2 activation reporter assay, cell-based qHTS; stimulated with anti-CD3/CD4/CD28 beads; in transgenic mouse T cells. 0.065% of 360,000 active. activation, % (series mostly up to about 46 µM); in the data active = activation above about 50%; inconclusive = mostly about 30% to 49%
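Readout is EGFP and DsRed signal by fluorescent plate cytometry after 18 h at 37 degrees C. Transgenic mouse T cells (750/well) received compound for 60 min before bead stimulation (anti-CD3, anti-CD4, anti-CD28); memory T cells served as non-tolerant control.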
Nrf2 block = blocks Nrf2 signaling; A549 ARE-Fluc reporter, luciferase luminescence, 18-24 h; Potency, µM (series often up to 46 µM), hits mostly inhibitors; 2.1% of 360,000 active; AID 504444; also: nearly all actives have a fitted effect of over 60% in size
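A549 ARE_Fluc cells (5000/well, 5% FBS OPTI-MEM) pre-incubated 2 h, then treated with compounds 18-24 h at 37C/5% CO2 in concentration-response. CellTiter-Fluor viability read first; BugLite luciferase luminescence after 15 min at room temperature gives Nrf2 activity.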
FLuc enzyme inh = counter-screen for Nrf2 inhibitors: firefly luciferase enzyme inhibition. shares compounds with Nrf2 block. purified firefly luciferase, luminescence inhibition. Potency, µM (doses to about 57.5 µM), usual class: inhibitors. 4% of 1,400 active. AID 720522; also: nearly all actives have a fitted effect of over 65% in size
A549 tox-2 = A549 cytotoxicity, Nrf2 inhibitor counterscreen. 2% of 1,400 active. A549 ARE-Fluc cells, cytotoxicity counterscreen. Potency, µM (titrated, usually from 46.1 µM), most hits filed as inhibitors. AID 720523. shares compounds with Nrf2 block;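 also: cells exposed to compounds for 18 to 24 hours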
Nrf2 ARE inh = confirmation of Nrf2 inhibitors in A549 ARE reporter cells; shares compounds with Nrf2 block; A549 ARE-firefly luciferase reporter, luminescence; Potency, µM (series often up to 46.1 µM), most hits filed as inhibitors; 74% of 1,400 active; AID 720524; also: nearly all actives have a fitted effect of over 65% in size
Numbers stand for hits; – = inactive; ? = inconclusive; · = no result shown; ! = not active in a repeat; [ ] = remark or other dose. An excerpt weighted towards active compounds, which were near 3.7% of everything screened. Unless noted, calls follow the shape of the dose curve; as a rule, active = well fitted curve in the direction sought with a large enough effect; inconclusive = small, poorly fitted or top-dose-only effect, or another doubt; inactive = no such curve, though single readings can be large; an effect the other way counts as inactive or inconclusive.

SMILES	Nrf2 ARE act	A549 tox-1	ClpP mod	miR-21 reporter	IL2 activator	Nrf2 block	FLuc enzyme inh	A549 tox-2	Nrf2 ARE inh
O=C(CSc1nnc(-c2cccc(F)c2)c(-c2cccc(F)c2)n1)NC1CCCCC1	–	–	–	–	·	·	·	·	·
CCC(O)C1CCN(C(=O)c2cc(COc3ccc4ncccc4c3)on2)CC1 (stereo unspecified)	–	?	·	–	–	1.84µM	–	–	1.46µM
Cc1cc(CN(C)C(=O)c2cc(COc3ccc4ncccc4c3)on2)on1	–	–	–	–	–	4.61µM	–	–	5.17µM
O=C(NC1CCCCCCC1)c1cc(COc2ccc3ncccc3c2)on1	–	?	·	–	–	3.26µM	–	–	2.91µM
Cc1cccnc1CN1CCN(C(=O)c2cc(COc3ccc4ncccc4c3)on2)CC1	–	–	·	–	–	4.11µM	–	–	?
Cc1cccc(C)c1OCc1cc(C(=O)NC2CCC2)no1	–	–	–	–	–	–	·	·	·
O=C(c1ccc(F)cc1F)N1CCC(c2nc(-c3ccc(S(=O)(=O)N4CCCC4)cc3)no2)CC1	–	–	–	–	·	–	·	·	·
CCC(=O)N1c2nc(C(C)C)nn2C2(CCCCC2)[C@@H]2CCCC[C@@H]21	–	–	–	–	·	–	·	·	·
COc1ccc(C2Nc3ccc(NC(=O)CO)cc3C(=O)N2Cc2cccc(Cl)c2)cc1COc1ccc(NC(C)=O)cc1 (stereo unspecified)	·	–	?	·	·	?	·	·	·
O=C1c2cc(S(=O)(=O)N3CCOCC3)ccc2-c2ccc(S(=O)(=O)N3CCOCC3)cc21	·	–	–	·	·	–	·	·	·
CCC(=O)N1c2ccccc2CC1C(=O)NCc1cccc(C)c1 (stereo unspecified)	–	–	–	–	·	·	·	·	·
CCOc1cc(C(=O)NCc2ccc3c(c2)CCN3C(=O)c2ccc(F)cc2)cc(OCC)c1OCC	–	–	–	–	·	·	·	·	·
O=C(c1cc(COc2ccc3ncccc3c2)on1)N1CCC(O)CC1	–	–	·	–	–	8.2µM	–	–	–
CSc1nc2sc3c(c2c(=O)n1-c1ccccc1C)CCCC3	–	–	–	–	·	·	·	·	·
CSc1nc2nc3c(cc2c(=O)n1-c1ccccc1C)CCCC3	–	?	·	–	–	5.8µM	–	–	·
COc1ccc(NS(=O)(=O)c2ccc(N3CCCCS3(=O)=O)cc2)cc1Cl	–	–	–	–	·	·	·	·	·
Cc1onc(-c2ccccc2)c1C(=O)Nc1ccccc1NC(=O)c1c(-c2ccccc2)noc1C	–	–	–	–	–	–	·	·	·
CC(=O)Nc1ccc(NC(=O)c2c(-c3ccccc3)noc2C)cn1	–	–	–	–	–	7.31µM	–	–	9.2µM
COc1ccc(NC(=O)CSc2nc(-c3ccco3)cc(C(F)(F)F)n2)cc1Cl	–	–	–	–	·	7.31µM	–	–	20.6µM
Cc1ccc(NC(=O)CSc2nc(-c3ccco3)cc(C(F)(F)F)n2)cc1	–	–	?	–	·	–	·	·	·
CCN(CC(=O)Nc1c(C(=O)OC)[nH]c2ccc(Cl)cc12)c1ccc2c(c1)OCO2	–	–	–	–	–	?	·	·	·
CCOC(=O)c1[nH]c2ccc(Cl)cc2c1NC(=O)/C=C/c1ccc2c(c1)OCO2	–	–	–	–	–	5.17µM	–	–	4.11µM
COC(=O)c1cc2sccc2n1CC(=O)Nc1ccc(C)cc1C	–	–	–	–	·	–	·	·	·
Cc1cc2c(=Cc3ccc(N(C)C)cc3)c3ccccc3n2[n+]1C	–	16.4µM	–	·	–	2.59µM	–	?	6.51µM
N#Cc1nc(N2CCCC2)nc(N2CCCC2)n1	–	–	–	–	–	5.17µM	–	–	13µM
SMILES	Nrf2 ARE act	A549 tox-1	ClpP mod	miR-21 reporter	IL2 activator	Nrf2 block	FLuc enzyme inh	A549 tox-2	Nrf2 ARE inh
COc1ccccc1CNC(=O)c1cccn1-c1nnc(N2CCCCC2)s1	–	–	–	–	·	?	·	·	·
O=C(Nc1ncc(Cc2cccc(C(F)(F)F)c2)s1)c1ccc(-c2cccc([N+](=O)[O-])c2)o1	–	–	–	–	–	2.59µM	–	–	5.17µM
O=C(Nc1nccs1)c1ccc(-c2cccc([N+](=O)[O-])c2)o1	–	–	·	–	–	?	·	·	·
CCOC(=O)C(CC)Sc1c(CC)cnc2c1c(=O)n(C)c(=O)n2C (stereo unspecified)	–	–	–	–	·	·	·	·	·
CC1=CC(=O)C2=C(C)CC[C@@H]3[C@H](OC(=O)[C@H]3C)[C@@H]12	–	–	–	–	–	6.51µM	–	–	6.51µM
COc1ccc(CNC(=O)CN2N=C(c3ccc(Cl)cc3)CCC2=O)cc1	–	–	–	–	·	·	·	·	·
COc1ccccc1OC(C)C(=O)Nc1nc(-c2ccc(S(=O)(=O)N3CCOCC3)cc2)cs1 (stereo unspecified)	–	?	–	–	–	–	·	·	·
COc1ccccc1C(=O)Nc1nc(-c2ccc(S(=O)(=O)N3CCOCC3)cc2)cs1	–	–	–	?	–	5.17µM	–	–	1.3µM
O=S(=O)(Nc1cc(Br)cc2cccnc12)c1cccc2ccccc12	·	?	·	·	·	2.31µM	–	?	7.31µM
O=S(=O)(Nc1ccccc1Br)c1cccc2cccnc12	–	·	–	·	–	·	·	·	·
CCOC(=O)c1cc2c(=O)n3ccccc3nc2n(CCOC)c1=NC(=O)c1c(-c2c(F)cccc2Cl)noc1C	–	–	–	–	–	6.51µM!	–	–	?
CCCCn1c(=NC(=O)c2c(-c3c(F)cccc3Cl)noc2C)c(C(=O)OCC)cc2c(=O)n3ccccc3nc21	–	–	–	–	·	–[9.27 µM]	·	·	·
C[n+]1ccccc1/C=C/c1ccccc1Cl	–	–	·	–	–	–	·	·	·
C[n+]1ccccc1/C=C/c1ccc([N+](=O)[O-])cc1	–	?	–	–	–	3.66µM	–	?	7.31µM
C[n+]1ccccc1/C=C/c1c(F)cccc1F	–	?	·	–	–	2.59µM	–	–	2.06µM
Cc1ccccc1/C=C/c1cccc[n+]1C	–	–	–	–	–	1.84µM	–	–	4.11µM
C=CCNc1ncnc2c1cnn2-c1ccc(C)cc1C	–	–	–	–	–	–	·	·	·
CCOC(=O)N1CCC(Nc2ncnc3c2cnn3-c2ccc(C)cc2C)CC1	–	–	–	–	–	8.2µM	–	–	13µM
